The results in this text go back to patent publication US20150038471A1, “PROCESS FOR PREVENTING OR MITIGATING BIOFOULING” (Baker Hughes Incorporated, priority 2010, published 2015).

The test system of this test is sulfate-reducing bacteria (SRB). The test can be described thus: SRB surviving 3 h treatment, serial dilution enumeration (NACE TMO 194-2004). The test is classed as cell-based. The settings on record: very low concentrations of cinnamaldehyde. The text has this:
Following the treatment, an aliquot of each sample was serially diluted (10-fold dilutions) into culture media for SRB to enumerate the survivors according to NACE TMO 194-2004.

Take `O=CC=Cc1ccccc1` [Cinnamaldehyde, cinnamaldehyde]: the “Effect of cinnamaldehyde on the ability of THPS to inhibit SRB growth” value is reported as “improves the ability of THPS to inhibit the growth of sulfate reducing bacteria”.
